Values quoted from earlier work as cited in patent US20140329903A1, “TREATMENT OF NEURODEGENERATIVE DISEASES” (ACADIA PHARMACEUTICALS INC., priority 2011, published 2014).
Where two headings read alike, the source gives them in different places.

System: NMU (N-nitroso-N-methylurea) induced mammary tumor carcinoma model
Details: cited from earlier work; for Effective in rat cancer model?: NDA #21055

## C=C(c1ccc(C(=O)O)cc1)c1cc2c(cc1C)C(C)(C)CCC2(C)C [Bexarotene, bexarotene]
oral, Targretin NDA #21055
  Effective anti-cancer dose (rats): 60 mg/kg/day
p.o. 10 mg/kg/day
  Effective in rat cancer model?: No
p.o. 30 mg/kg/day, Yes/no indicates partial efficacy
  Effective in rat cancer model?: Yes/No
p.o. 100 mg/kg/day
  Effective in rat cancer model?: Yes
